We go through five molecules from patent US12662491B2 (Redona Therapeutics, Inc., priority 2020, dated 2026).

By UniProt entry, the sequences of proteins in these tests, tags left out. Residues count along the entry.
UniProt Q5TAX3, 212-1420 limits assumed: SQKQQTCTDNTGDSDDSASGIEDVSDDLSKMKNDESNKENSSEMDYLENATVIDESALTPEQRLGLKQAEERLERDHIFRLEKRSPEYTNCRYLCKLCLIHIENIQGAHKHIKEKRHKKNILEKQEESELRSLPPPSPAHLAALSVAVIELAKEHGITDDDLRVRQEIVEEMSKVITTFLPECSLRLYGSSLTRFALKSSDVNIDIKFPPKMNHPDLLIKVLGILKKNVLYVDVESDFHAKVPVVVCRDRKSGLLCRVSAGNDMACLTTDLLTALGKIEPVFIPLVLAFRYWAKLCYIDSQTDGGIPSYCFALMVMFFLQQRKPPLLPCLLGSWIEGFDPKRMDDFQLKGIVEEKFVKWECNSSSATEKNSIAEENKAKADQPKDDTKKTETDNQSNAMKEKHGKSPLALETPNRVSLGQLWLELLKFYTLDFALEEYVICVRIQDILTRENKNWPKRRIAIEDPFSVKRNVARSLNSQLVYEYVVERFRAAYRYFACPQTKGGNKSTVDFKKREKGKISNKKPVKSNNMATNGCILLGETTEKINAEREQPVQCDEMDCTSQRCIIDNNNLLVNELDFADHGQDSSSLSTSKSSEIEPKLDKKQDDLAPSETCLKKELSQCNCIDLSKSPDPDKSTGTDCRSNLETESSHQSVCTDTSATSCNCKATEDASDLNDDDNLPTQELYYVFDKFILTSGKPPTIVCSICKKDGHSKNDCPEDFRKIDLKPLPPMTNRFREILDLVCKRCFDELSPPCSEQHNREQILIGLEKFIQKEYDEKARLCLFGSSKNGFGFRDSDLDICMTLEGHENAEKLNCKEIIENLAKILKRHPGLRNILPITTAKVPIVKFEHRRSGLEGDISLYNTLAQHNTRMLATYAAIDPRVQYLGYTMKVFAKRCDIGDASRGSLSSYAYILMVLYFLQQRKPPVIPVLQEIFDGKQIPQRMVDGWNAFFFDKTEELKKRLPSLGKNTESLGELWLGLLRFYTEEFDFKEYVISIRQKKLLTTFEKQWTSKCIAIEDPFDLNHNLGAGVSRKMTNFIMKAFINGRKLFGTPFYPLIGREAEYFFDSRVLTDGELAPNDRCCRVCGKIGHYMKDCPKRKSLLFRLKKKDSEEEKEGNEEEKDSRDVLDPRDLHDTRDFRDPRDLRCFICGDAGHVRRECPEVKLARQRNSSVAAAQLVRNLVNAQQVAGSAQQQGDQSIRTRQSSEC

SMILES strings stand for the structures.

The term IC50 denotes the concentration that inhibits the measured activity by half.

The target in the test is Zcchc11 enzyme (Homo sapiens, UniProt Q5TAX3). Description: TUTase assay (Zcchc11 assay, Lin28a-dependent polyuridylation of pre-let-7). The conditions noted are these: read-out: Potency Lin28a-dep Z11 IC50; Lin28a-dependent Zcchc11 (Z11) TUTase activity. The method, then:
The purpose of the Zcchc11 assay is to determine compound potency against Zcchc11 enzyme through the measurement of IC50. Compound inhibition is measured as a function of polyuridine tails added to RNA substrates in the presence of active TUTase, UTP, and inhibitor. The Zcchc11 assay was done in a black, non-binding, 384 well plate (Corning #3575). All steps were performed at room temperature. For a typical assay, a 29 ul aliquot of assay buffer (50 mM HEPES pH 7.3, 150 mM KCl, 5 mM MgCl2, 10 mM DTT, 0.01% Triton X-100, 40 U/ml RNAsin (Promega)) containing LIN28A protein (final concentration: 10 nM) is added to each well. Next, 1 ul of compound in 100% DMSO is transferred from a compound dilution plate in which the compound is serially diluted. Next, 10 ul of a 5× mix of Zcchc11 and RNA substrate (5′-fluorescein labeled pre-let-7 miRNA (Dharmacon)) is added (final concentrations: 0.2 nM and 2 nM, respectively). The plate is placed on a plate shaker for 30 seconds to produce mixing, then incubated for 30 minutes. Next, 10 ul of a 5× mix of UTP and the quenching probe (3′-rhodamine labeled A20, polyadenosine nucleotide, (IDT)) is added (final concentrations: 5 uM and 4 nM, respectively). The plate is immediately placed in a Biotek Cytation 5 plate reader, and the time-dependent decrease in fluorescein fluorescence resulting from annealing of the A20 probe to polyuridine tails is recorded, using the kinetics mode of the reader. Reaction rates are obtained using linear fits to the early portion of progress curves. IC50 values are calculated using a four parameter fit with 100% enzyme activity determined from the DMSO control and 0% activity from control samples lacking UTP.
The LIN28A protein was expressed in and purified from E. coli, strain Rosetta II (Novagen). The entire coding sequence of the human, wild-type protein was cloned into expression vector pMAL (NEB), down-stream from a maltose-binding protein tag. The linker sequence contained a TEV protease cleavage site. The protein was purified from bacterial extracts using an MBP-Trap column (GE Healthcare Life Sciences), followed by tag cleavage and removal of the tag by ion-exchange chromatography. When necessary, contaminating bacterial RNA was removed using the procedure describe by Faehnle C R. et al. (2017) Multi-domain utilization by TUT4 and TUT7 in control of let-7 biogenesis. Nat Struct Mol Biol, 24:658-665.
The Zcchc11 protein was expressed in and purified from HEK293 cells. A truncated protein comprising residues 212-1420 of the human sequence was cloned into expression vector pTT5 (Viva Biotech) down-stream from a maltose-binding protein tag. The linker sequence contained a TEV protease cleavage site, and a FLAG tag was added to the carboxyl terminus of the protein. The protein was purified from cell extracts using an MBP-Trap column (GE Healthcare Life Sciences), followed by tag cleavage and further enrichment of the full length construct using anti-FLAG affinity media (Sigma Aldrich).
“+” represents an IC50 value that is greater than 50 μM; “++” represents an IC50 value that is greater than 10 μM and equal to or less than 50 μM; “+++” represents an IC50 value that is greater than 1 μM and equal to or less than 10 μM; and “++++” represents an IC50 value that is equal to or less than 1 μM.
In the case of `CN(C)C1CN(c2ccc(-n3cc(C(=O)O)c(=O)c4cc(Cl)c(N5CCC[C@@H]5COc5nccc6[nH]ccc56)cc43)cn2)C1`, the 50% inhibitory concentration (IC50) is under 1 µM.

Regarding `CN(C)C1CN(c2ccc(-n3cc(C(=O)O)c(=O)c4cc(Cl)c(N5CCC[C@@H]5COc5nc(N)ccc5Cl)cc43)cn2)C1` (racemic), the half-maximal inhibitory concentration (IC50) was under 1 µM.

Turning to `Cn1cc(-n2cc(C(=O)O)c(=O)c3cc(C#N)c(N4CCC[C@@H]4COc4ncccc4Cl)cc32)cn1` (racemic), the half-inhibitory concentration (IC50) was under 1 µM.

Turning to `Cn1cc(-n2cc(C(=O)O)c(=O)c3cc(C#N)c(N4CCC[C@@H]4COc4ncccc4Cl)nc32)cn1` (racemic), the IC50 is under 1 µM.

On to `CN(C)c1ccc(-n2cc(C(=O)O)c(=O)c3cc(Cl)c(N4CCC[C@@H]4COc4ncccc4OCCN)cc32)cn1` [Example 53, 7-[(2R)-2-([[3-(2-Aminoethoxy)pyridin-2-yl]oxy]methyl)pyrrolidin-1-yl]-6-chloro-1-[6-(dimethylamino)pyridin-3-yl]-4-oxoquinoline-3-carboxylic acid], for which the 50% inhibitory concentration (IC50) is under 1 µM.
